# Source: patent US8058475B2, “Substituted cyclohexylmethyl compounds” (Gruenenthal GmbH, priority 2005, dated 2011)
# By UniProt entry, the sequences of proteins in these tests, tags left out.
# UniProt P35372, whole entry: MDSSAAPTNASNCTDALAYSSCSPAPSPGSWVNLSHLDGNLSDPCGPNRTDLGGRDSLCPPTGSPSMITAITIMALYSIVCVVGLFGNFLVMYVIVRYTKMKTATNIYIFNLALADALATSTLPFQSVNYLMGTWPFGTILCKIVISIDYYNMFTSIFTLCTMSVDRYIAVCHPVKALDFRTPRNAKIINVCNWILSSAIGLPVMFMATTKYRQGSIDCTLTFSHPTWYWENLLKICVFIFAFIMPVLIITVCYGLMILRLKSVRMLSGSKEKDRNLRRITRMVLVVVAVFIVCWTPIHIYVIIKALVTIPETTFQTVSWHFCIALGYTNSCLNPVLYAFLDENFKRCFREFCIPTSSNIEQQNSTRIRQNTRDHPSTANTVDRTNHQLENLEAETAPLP
# pKi: −log10 of the molar value.
# Biological target: human μ-opiate receptor (Homo sapiens, UniProt P35372)
# Details: acylated amines (Table 20)
compound,measurement,setting,value
CN(C)C(c1cccc(F)c1)C1CCC(CNC(=O)c2cccc(C(F)(F)F)c2)CC1 (centres unmarked),"μ-Opioid receptor, % inhibition [1 μM]",1 μM,85%
same,pKi,"read-out: μ-Opioid receptor, Ki",7.46
